According to patent US6545010B2, “Composition comprising camptothecin or a camptothecin derivative and a platin derivative for the treatment of cancer” (priority 2000, dated 2003):

System: Colon Adenocarcinoma C51
Experiment: CPT-11, cisplatin and combination, three-arm study in mice bearing colon adenocarcinoma C51
Settings: Cisplatin i.v. 5.0 mg/kg/adm, days 4, 7

cis-diaminedichloroplatinum
Comments: Toxic
